Measurements as given in patent US6905839B2, “In vivo phenotyping for human cytochrome P450 3A activity” (priority 2002, dated 2005).

Tested on: CYP3A
Conditions: male, human, in vivo
Description: The subject was not receiving any medication. […] Urine samples were obtained at a timed period (0-2, 2-4, 4-6, 6-8, 8-10, and 10-12) and the volume of the urine samples was noted. The recommended frequency of blood sampling is at least one time during a 2-hour urine collection. Urinary concentrations of cortisol and 6β-hydroxycortisol and plasma concentrations of cortisol were determined by HPLC and GC-MS, respectively. “The endogenous metabolic clearance (CLm(6β)-endo)” was calculated by Equation 4.
c) The fractional metabolic clearance for the 6β-hydroxylation of endogenous cortisol (CLm(6β)) is expressed as the amount of urinary excreted 6β-hydroxycortisol (X(6β)) divided by the area under the concentration-time curve of cortisol (AUC(F)); that is, CLm(6β)=X(6β)/AUC(F).

Question: For `CC[C@H]1OC(=O)[C@H](C)[C@@H](O[C@H]2C[C@@](C)(OC)[C@@H](O)[C@H](C)O2)[C@H](C)[C@@H](O[C@@H]2O[C@H](C)C[C@H](N(C)C)[C@H]2O)[C@](C)(OC)C[C@@H](C)C(=O)[C@H](C)[C@@H](O)[C@]1(C)O` [clarithromycin], which “CLm(6β)-endo values during treatment (daily means)” value is on record?
Answer: 1.46 to 1.74 mL/min
